Each structure is given as a SMILES string.

Sequences of proteins named here, by UniProt entry; tags and fusion partners are left off. A change or cut given only in a name is not applied to a line headed by its entry.
UniProt Q12809: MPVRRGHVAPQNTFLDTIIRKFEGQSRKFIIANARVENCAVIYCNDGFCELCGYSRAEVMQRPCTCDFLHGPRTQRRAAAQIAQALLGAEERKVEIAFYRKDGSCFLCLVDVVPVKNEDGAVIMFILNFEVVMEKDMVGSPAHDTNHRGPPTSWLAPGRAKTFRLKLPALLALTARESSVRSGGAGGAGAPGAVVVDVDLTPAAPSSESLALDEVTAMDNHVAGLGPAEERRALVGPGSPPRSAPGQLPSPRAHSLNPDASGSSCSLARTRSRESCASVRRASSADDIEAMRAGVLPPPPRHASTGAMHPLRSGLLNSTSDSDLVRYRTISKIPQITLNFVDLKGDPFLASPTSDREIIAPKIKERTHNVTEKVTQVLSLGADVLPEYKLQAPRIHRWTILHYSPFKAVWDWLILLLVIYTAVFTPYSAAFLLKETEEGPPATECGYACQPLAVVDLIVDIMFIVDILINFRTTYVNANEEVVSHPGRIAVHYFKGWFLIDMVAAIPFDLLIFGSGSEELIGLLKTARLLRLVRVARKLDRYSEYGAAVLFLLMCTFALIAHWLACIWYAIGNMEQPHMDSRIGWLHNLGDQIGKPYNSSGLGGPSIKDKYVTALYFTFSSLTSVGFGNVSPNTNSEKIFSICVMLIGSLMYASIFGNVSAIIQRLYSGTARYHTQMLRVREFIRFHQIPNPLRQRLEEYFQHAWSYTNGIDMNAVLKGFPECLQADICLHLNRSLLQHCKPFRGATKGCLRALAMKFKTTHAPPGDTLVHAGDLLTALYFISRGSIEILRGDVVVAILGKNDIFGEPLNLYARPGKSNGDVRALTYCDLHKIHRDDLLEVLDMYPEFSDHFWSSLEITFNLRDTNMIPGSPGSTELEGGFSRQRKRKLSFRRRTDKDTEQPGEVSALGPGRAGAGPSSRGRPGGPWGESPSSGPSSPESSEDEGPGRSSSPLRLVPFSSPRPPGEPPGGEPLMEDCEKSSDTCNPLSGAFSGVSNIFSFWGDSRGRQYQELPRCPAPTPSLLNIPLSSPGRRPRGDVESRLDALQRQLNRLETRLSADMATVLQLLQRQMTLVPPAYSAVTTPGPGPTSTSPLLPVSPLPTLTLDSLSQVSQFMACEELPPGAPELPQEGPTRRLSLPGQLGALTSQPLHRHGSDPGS

Usually IC50 stands for the concentration at which inhibition is half-maximal.

In this assay the target is Human HERG (Homo sapiens, UniProt Q12809). The assay is described as follows: Human dofetilide binding assay. The note with it: read-out: IC50 value of human dofetilide binding; membranes of human HERG transfected HEK293S cells, Cy3B tagged dofetilide derivative, fluorescence polarization. Background: Polarisation of emitted light reports the rotation of a fluorescent probe.

On to `CC(C)(C)Cc1nc2cc(S(=O)(=O)CC3CCN(c4ccncc4)CC3)ccc2n1CC1CC1`, for which the IC50 came to 600 nM.

The values above are taken from US8653063B2, “N-substituted saturated heterocyclic sulfone compounds with CB2 receptor agonistic activity” (dated 2014).
